Values quoted from earlier work as cited in US8613821B2, “Basic metal nitrate, process for producing the same and gas generating agent composition” (dated 2013).

Tested on: rat

Which “LD50 (oral-rat)” value does the source give for `NNc1nc(NN)nc(NN)n1` here?
Its value is 3,161 mg/kg.
